Patent publication US20090214565A1 (BAYLOR RESEARCH INSTITUTE, published 2009)

Columns and labels:
[1] = molecular target: T1, IFN-α B2 (human, UniProt P32881 24-189); assay: cell-based or functional assay
[2] = molecular target: T1, IFN-α B2; assay: cell-based or functional assay; remark: listed apart in the source

B1: ACO-1 (antibody, V domains shown)
VH: QVQLQQPGAELVKPGASVKLSCKASGYTFTNYWMHWVKQRPGQGLEWIGEINPSHGRTIYNENFKSKATLTVDKSSITAFMQLSSLTSEDSAVYFCARGGLGPAWFAYWGQGTLVTVSA
VL: QIVLTQSPAIMSASPGEKVTLTCSAGSSVDSSYLYWYQQKPGSSPKLWIYSTSNLASGVPARFSGSGSGTSYSLTISSMEAEDAASYFCHQWSSYPFTFGSGTKLEIKR
notes: also called ACO-1 monoclonal antibody; hybridoma ATCC PTA-6557
In the case of B1, the “EC50 of neutralization, RG bioassay” value [1] is reported as 8.09 ng/mL and the “percentage neutralization, CPE assay” value [2] is reported as 98.8%.
